Data from PMC10009755, “Discovery and Characterization of BAY-805, a Potent and Selective Inhibitor of Ubiquitin-Specific Protease USP21” (Journal of Medicinal Chemistry, 2023).

Amino acid sequences for entries named in this document (tags omitted). A change or cut given only in a name is not applied to a line headed by its entry. Residues count along the entry.
UniProt Q5MAI5: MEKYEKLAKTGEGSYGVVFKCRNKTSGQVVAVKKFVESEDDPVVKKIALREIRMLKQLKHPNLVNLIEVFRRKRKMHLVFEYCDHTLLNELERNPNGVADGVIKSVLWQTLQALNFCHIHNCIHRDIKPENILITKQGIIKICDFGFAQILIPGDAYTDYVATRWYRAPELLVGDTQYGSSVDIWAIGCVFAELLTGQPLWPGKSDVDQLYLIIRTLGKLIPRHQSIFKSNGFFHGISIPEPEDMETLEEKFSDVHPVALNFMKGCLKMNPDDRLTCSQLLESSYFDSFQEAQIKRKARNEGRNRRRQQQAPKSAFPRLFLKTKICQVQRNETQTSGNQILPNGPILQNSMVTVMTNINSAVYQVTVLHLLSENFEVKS
UniProt Q15208: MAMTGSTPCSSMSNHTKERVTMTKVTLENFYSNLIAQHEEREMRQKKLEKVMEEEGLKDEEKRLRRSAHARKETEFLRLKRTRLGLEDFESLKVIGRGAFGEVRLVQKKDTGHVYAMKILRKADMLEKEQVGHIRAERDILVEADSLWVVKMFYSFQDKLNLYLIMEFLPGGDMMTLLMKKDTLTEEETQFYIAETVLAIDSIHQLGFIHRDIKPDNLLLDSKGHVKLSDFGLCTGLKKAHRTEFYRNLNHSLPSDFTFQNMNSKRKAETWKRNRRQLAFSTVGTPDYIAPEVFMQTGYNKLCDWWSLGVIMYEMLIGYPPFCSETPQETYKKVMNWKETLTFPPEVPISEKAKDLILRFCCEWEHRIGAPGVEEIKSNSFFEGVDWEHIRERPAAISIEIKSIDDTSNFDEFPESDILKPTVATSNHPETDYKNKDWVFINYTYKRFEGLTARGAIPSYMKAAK
UniProt Q9UBE8: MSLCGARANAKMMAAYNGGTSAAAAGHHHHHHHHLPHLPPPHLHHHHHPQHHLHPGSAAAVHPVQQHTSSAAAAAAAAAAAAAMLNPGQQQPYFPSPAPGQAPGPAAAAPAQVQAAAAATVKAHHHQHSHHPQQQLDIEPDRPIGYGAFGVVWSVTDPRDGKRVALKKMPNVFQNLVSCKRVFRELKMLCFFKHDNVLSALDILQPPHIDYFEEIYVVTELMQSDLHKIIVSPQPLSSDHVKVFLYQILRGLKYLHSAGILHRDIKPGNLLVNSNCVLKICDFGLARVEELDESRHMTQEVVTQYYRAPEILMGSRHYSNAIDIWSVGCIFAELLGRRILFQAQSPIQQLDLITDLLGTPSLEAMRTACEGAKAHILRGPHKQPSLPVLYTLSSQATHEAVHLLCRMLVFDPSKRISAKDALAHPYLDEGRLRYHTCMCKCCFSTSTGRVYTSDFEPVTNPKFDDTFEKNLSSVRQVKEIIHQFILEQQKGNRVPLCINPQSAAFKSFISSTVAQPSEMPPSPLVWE
UniProt Q70CQ3, 57-517: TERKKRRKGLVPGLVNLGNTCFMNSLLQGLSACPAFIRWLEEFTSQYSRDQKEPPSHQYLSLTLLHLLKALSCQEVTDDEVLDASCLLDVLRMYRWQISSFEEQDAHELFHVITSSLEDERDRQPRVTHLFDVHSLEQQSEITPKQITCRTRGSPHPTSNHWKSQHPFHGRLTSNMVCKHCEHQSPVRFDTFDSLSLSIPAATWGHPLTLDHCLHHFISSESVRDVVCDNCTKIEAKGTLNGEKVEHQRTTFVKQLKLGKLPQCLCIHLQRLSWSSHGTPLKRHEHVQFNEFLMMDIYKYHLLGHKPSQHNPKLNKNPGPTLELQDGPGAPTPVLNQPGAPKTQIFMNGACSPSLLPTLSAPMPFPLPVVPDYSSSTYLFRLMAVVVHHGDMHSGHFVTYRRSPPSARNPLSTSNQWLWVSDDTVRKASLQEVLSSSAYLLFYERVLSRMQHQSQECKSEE
UniProt P68400, whole entry: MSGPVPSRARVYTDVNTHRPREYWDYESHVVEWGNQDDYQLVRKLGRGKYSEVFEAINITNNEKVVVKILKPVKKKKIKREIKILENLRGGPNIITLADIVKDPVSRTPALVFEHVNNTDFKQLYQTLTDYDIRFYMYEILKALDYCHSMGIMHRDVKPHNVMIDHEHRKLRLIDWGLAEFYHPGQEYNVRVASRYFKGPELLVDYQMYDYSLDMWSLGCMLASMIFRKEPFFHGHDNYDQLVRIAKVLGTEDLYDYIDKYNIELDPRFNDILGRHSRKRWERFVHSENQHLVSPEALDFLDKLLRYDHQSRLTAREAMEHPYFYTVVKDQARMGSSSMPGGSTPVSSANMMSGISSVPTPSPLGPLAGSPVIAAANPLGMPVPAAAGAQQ
UniProt Q05513: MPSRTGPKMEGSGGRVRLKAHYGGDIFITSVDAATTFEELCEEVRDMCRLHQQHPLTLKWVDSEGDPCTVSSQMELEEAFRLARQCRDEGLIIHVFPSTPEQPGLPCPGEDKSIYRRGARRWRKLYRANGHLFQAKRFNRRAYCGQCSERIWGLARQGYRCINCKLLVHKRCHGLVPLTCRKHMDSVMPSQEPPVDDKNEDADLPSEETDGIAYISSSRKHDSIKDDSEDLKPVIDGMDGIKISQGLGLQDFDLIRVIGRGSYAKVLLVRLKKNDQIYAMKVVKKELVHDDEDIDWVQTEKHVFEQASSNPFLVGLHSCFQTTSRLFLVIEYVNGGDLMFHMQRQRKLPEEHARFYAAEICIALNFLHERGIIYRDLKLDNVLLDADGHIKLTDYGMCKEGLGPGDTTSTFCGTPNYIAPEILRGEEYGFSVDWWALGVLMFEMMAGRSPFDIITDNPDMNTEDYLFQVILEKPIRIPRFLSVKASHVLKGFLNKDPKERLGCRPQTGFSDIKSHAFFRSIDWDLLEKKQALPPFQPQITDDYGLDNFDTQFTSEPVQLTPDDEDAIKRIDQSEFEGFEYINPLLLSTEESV
UniProt Q14004, whole entry: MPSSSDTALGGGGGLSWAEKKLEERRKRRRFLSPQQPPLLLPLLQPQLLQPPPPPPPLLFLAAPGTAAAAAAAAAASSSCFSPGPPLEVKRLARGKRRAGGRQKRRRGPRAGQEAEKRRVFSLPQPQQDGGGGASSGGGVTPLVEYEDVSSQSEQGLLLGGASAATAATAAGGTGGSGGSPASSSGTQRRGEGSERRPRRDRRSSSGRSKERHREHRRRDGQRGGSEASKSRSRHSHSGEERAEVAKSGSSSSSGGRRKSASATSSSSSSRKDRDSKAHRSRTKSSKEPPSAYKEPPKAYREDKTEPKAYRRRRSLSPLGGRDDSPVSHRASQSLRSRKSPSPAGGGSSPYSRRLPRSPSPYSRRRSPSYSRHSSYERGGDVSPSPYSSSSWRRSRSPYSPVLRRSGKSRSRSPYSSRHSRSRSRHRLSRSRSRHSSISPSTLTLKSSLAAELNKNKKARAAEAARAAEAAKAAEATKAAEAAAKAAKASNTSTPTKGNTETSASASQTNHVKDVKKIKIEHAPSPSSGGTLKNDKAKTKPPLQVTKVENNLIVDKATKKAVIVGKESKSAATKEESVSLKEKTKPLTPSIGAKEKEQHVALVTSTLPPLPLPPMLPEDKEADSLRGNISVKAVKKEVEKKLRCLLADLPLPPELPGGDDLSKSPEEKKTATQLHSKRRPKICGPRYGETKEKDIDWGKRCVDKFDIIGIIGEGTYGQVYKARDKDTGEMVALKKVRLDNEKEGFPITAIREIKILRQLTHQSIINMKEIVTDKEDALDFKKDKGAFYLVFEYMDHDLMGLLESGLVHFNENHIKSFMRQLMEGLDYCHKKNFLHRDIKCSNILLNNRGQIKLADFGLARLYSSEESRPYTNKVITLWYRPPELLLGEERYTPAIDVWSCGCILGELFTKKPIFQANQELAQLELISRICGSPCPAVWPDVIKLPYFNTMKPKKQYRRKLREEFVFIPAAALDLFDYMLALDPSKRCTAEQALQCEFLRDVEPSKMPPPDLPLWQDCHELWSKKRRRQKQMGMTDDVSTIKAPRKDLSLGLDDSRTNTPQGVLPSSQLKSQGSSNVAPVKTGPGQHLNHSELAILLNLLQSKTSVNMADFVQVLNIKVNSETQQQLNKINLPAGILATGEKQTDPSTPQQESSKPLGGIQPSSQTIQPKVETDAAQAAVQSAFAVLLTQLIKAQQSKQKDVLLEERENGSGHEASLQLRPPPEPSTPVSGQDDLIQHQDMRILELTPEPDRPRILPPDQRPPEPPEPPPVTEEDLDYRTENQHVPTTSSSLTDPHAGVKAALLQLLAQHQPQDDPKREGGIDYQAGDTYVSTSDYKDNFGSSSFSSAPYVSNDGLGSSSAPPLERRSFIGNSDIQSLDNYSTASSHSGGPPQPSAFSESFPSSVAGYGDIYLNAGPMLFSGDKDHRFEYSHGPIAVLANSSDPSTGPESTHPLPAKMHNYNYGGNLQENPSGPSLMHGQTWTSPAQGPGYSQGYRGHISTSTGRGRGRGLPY
UniProt Q15835: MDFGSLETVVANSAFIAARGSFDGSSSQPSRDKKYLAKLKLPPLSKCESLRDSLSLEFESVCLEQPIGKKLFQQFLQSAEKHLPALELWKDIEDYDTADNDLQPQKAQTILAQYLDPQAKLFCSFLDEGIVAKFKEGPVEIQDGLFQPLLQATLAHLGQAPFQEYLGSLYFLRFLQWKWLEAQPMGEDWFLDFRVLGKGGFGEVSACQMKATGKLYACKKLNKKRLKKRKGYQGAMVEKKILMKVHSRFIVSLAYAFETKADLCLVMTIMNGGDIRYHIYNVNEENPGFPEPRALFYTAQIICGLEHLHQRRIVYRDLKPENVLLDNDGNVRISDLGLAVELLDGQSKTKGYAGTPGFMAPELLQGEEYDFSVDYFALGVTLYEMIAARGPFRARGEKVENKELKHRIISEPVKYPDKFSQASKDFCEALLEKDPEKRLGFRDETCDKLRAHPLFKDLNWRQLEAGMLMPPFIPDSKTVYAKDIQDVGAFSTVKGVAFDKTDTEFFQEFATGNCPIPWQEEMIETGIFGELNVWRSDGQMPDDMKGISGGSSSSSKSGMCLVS
UniProt Q00526: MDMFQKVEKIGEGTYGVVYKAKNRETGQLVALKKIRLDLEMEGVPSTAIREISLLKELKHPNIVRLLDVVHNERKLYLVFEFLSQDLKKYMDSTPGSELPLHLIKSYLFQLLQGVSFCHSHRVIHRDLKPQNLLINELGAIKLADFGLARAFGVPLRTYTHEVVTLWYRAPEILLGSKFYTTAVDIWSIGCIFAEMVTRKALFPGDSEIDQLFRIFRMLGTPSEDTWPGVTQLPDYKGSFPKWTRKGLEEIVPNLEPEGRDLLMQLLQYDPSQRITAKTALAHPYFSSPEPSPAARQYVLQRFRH
UniProt Q96PN8: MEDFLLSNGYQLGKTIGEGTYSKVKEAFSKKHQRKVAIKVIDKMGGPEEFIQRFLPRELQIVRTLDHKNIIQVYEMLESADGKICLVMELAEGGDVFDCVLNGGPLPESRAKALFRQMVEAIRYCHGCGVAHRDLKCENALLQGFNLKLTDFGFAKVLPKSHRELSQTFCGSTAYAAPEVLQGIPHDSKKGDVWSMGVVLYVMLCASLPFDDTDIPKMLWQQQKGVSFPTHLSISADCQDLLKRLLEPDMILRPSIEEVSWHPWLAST
UniProt Q9HBY8: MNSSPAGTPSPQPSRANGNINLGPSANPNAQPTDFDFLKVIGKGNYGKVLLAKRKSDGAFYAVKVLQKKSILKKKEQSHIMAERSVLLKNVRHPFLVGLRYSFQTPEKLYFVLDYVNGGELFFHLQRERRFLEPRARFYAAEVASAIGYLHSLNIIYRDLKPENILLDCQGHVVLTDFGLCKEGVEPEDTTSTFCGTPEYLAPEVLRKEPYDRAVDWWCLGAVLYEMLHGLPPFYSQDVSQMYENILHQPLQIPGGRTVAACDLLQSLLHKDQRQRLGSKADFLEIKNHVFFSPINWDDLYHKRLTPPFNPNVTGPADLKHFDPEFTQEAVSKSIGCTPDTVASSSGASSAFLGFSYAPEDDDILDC
UniProt O00311: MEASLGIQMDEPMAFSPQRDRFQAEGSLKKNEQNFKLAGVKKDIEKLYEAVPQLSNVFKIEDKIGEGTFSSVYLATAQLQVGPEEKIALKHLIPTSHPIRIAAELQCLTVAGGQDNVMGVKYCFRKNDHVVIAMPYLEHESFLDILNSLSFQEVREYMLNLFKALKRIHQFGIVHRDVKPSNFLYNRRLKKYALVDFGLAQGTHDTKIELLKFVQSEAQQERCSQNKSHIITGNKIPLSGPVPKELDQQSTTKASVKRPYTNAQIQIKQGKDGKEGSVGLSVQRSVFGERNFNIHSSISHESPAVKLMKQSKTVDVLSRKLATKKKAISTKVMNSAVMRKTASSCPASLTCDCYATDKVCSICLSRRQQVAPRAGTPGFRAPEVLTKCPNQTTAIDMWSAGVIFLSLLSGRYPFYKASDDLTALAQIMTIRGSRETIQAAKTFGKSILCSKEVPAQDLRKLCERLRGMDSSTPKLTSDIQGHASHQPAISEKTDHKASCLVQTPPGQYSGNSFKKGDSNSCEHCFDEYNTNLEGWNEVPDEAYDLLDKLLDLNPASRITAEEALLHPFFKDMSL

Experiments:
[1] = molecular target: Growth Hormone Secretagogue (GHS, Ghrelin) (Homo sapiens, UniProt Q92847); assay: biochemical; details: read-out: % Inh.
BMPR2(h) = BMPR2(h) (Homo sapiens, UniProt Q13873); assay: biochemical
DAPK1(h) = DAPK1(h) (Homo sapiens, UniProt P53355); assay: biochemical
DMPK(h) = DMPK(h) (Homo sapiens, UniProt Q09013); assay: biochemical
CDKL4(h) = CDKL4(h) (Homo sapiens, UniProt Q5MAI5); assay: biochemical
NDR1(h) = NDR1(h) (Homo sapiens, UniProt Q15208); assay: biochemical
Adenosine A2A = Adenosine A2A (Homo sapiens, UniProt P29274); assay: biochemical; details: read-out: % Inh.
NLK (h) = NLK (h) (Homo sapiens, UniProt Q9UBE8); assay: biochemical
USP9X = USP9X (Homo sapiens, UniProt Q93008); assay: biochemical; details: read-out: Activity (% Control)
OTUD3 = OTUD3 (Homo sapiens, UniProt Q5T2D3); assay: biochemical; details: read-out: Activity (% Control)
Endothelin ETB = Endothelin ETB (Homo sapiens, UniProt P24530); assay: biochemical; details: read-out: % Inh.
Estrogen Erα = Estrogen Erα (Homo sapiens, UniProt P03372); assay: biochemical; details: read-out: % Inh.
Cyclooxygenase COX-2 = Cyclooxygenase COX-2 (Homo sapiens, UniProt P35354); assay: biochemical; details: read-out: % Inh.
PKBgamma(h) = PKBgamma(h) (Homo sapiens, UniProt Q9Y243); assay: biochemical
TGFBR2(h) = TGFBR2(h) (Homo sapiens, UniProt P37173); assay: biochemical
OSR1(h) = OSR1(h) (Homo sapiens, UniProt O95747); assay: biochemical
Adrenergic β2 = Adrenergic β2 (Homo sapiens, UniProt P07550); assay: biochemical; details: read-out: % Inh.
USP30 = USP30 (Homo sapiens, UniProt Q70CQ3); assay: biochemical; details: read-out: Activity (% Control)
CK2alpha1(h) = CK2alpha1(h) (Homo sapiens, UniProt P68400); assay: biochemical
CLK2(h) = CLK2(h) (Homo sapiens, UniProt P49760); assay: biochemical
IRAK4(h) = IRAK4(h) (Homo sapiens, UniProt Q9NWZ3); assay: biochemical
NDR2(h) = NDR2(h) (Homo sapiens, UniProt Q9Y2H1); assay: biochemical
PKCzeta(h) = PKCzeta(h) (Homo sapiens, UniProt Q05513); assay: biochemical
WNK2(h) = WNK2(h) (Homo sapiens, UniProt Q9Y3S1); assay: biochemical
CDK13/cyclinK(h) = CDK13/cyclinK(h) (Homo sapiens, UniProt Q14004); assay: biochemical
Glucocorticoid = Glucocorticoid (Homo sapiens, UniProt P04150); assay: biochemical; details: read-out: % Inh.
NEK2(h) = NEK2(h) (Homo sapiens, UniProt P51955); assay: biochemical
SRPK1(h) = SRPK1(h) (Homo sapiens, UniProt Q96SB4); assay: biochemical
GRK1(h) = GRK1(h) (Homo sapiens, UniProt Q15835); assay: biochemical
CDK3/cyclinE(h) = CDK3/cyclinE(h) (Homo sapiens, UniProt Q00526); assay: biochemical
ACTR2(h) = ACTR2(h) (Homo sapiens, UniProt P27037); assay: biochemical
PAK3(h) = PAK3(h) (Homo sapiens, UniProt O75914); assay: biochemical
Cezanne = Cezanne (Homo sapiens, UniProt Q6GQQ9); assay: biochemical; details: read-out: Activity (% Control)
IRR(h) = IRR(h) (Homo sapiens, UniProt P14616); assay: biochemical
TSSK3(h) = TSSK3(h) (Homo sapiens, UniProt Q96PN8); assay: biochemical
Progesterone PR-B = Progesterone PR-B (Homo sapiens, UniProt P06401); assay: biochemical; details: read-out: % Inh.
OTUD1 = OTUD1 (Homo sapiens, UniProt Q5VV17); assay: biochemical; details: read-out: Activity (% Control)
SGK2(h) = SGK2(h) (Homo sapiens, UniProt Q9HBY8); assay: biochemical
[2] = test system: 44 individual DUB targets
Phosphodiesterase PDE5 = Phosphodiesterase PDE5 (Homo sapiens, UniProt O76074); assay: biochemical; details: read-out: % Inh.
Cdc7/cyclinB1(h) = Cdc7/cyclinB1(h) (Homo sapiens, UniProt O00311); assay: biochemical
Glutamate, NMDA, Agonism = details: 10 µM

SMILES: CC(C)C[C@@H](NC(=O)C1(C(F)(F)F)CCCCC1)C(=O)Nc1nnc(Cc2ccc(C#N)cc2)s1 [Compound 21, N-[(1R)-1-[[5-[(4-Cyanophenyl)methyl]-1,3,4-thiadiazol-2-yl]carbamoyl]-3-methyl-butyl]-1-(trifluoromethyl)cyclohexanecarboxamide]
- inhibition at 10 µM [1]: 20%
- inhibition at 10 µM (BMPR2(h)): 2.11%
- inhibition at 10 µM (DAPK1(h)): 0.57%
- inhibition at 10 µM (DMPK(h)): 4.5%
- inhibition at 10 µM (CDKL4(h)): 0.71%
- inhibition at 10 µM (NDR1(h)): 5.83%
- inhibition at 10 µM (Adenosine A2A): 2%
- inhibition at 10 µM (NLK (h)): 7.16%
- remaining activity at 1 µM (USP9X): 97%
- remaining activity at 10 µM (USP9X): 108%
- remaining activity at 1 µM (OTUD3): 102%
- remaining activity at 10 µM (OTUD3): 101%
- inhibition at 10 µM (Endothelin ETB): 4%
- inhibition at 10 µM (Estrogen Erα): -6%
- inhibition at 10 µM (Cyclooxygenase COX-2): 2%
- inhibition at 10 µM (PKBgamma(h)): -0.64%
- inhibition at 10 µM (TGFBR2(h)): 2.48%
- inhibition at 10 µM (OSR1(h)): -11.2%
- inhibition at 10 µM (Adrenergic β2): 3%
- remaining activity at 10 µM (USP30): 69%
- remaining activity at 50 µM (USP30): 65%
- inhibition at 10 µM (CK2alpha1(h)): 7.38%
- inhibition at 10 µM (CLK2(h)): -2.03%
- inhibition at 10 µM (IRAK4(h)): -5.95%
- inhibition at 10 µM (NDR2(h)): 10.8%
- inhibition at 10 µM (PKCzeta(h)): 6.74%
- inhibition at 10 µM (WNK2(h)): -5.83%
- inhibition at 10 µM (CDK13/cyclinK(h)): 2.39%
- inhibition at 10 µM (Glucocorticoid): 14%
- inhibition at 10 µM (NEK2(h)): -5.96%
- inhibition at 10 µM (SRPK1(h)): -23.2%
- inhibition at 10 µM (GRK1(h)): -7.18%
- inhibition at 10 µM (CDK3/cyclinE(h)): -8.85%
- inhibition at 10 µM (ACTR2(h)): 6.68%
- inhibition at 10 µM (PAK3(h)): -2.47%
- remaining activity at 1 µM (Cezanne): 102%
- remaining activity at 10 µM (Cezanne): 99%
- inhibition at 10 µM (IRR(h)): -2.02%
- inhibition at 10 µM (TSSK3(h)): 24.5%
- inhibition at 10 µM (Progesterone PR-B): 5%
- remaining activity at 1 µM (OTUD1): 102%
- remaining activity at 10 µM (OTUD1): 99%
- inhibition at 10 µM (SGK2(h)): 6.44%
- inhibition across various DUBs [2]: < 15%
- inhibition at 10 µM (Phosphodiesterase PDE5): 13%
- inhibition at 10 µM (Cdc7/cyclinB1(h)): 6.32%
- % Inh. (Glutamate, NMDA, Agonism): 7

SMILES: CC(C)C[C@H](NC(=O)C1(C(F)(F)F)CCCCC1)C(=O)Nc1nnc(Cc2ccc(C#N)cc2)s1 [Compound 22, CC(C)C[C@H](NC(=O)C1(CCCCC1)C(F)(F)F)C(=O)Nc2nnc(Cc3ccc(cc3)C#N)s2]
- inhibition at 10 µM [1]: 8%
- inhibition at 10 µM (BMPR2(h)): 1.41%
- inhibition at 10 µM (DAPK1(h)): 0.15%
- inhibition at 10 µM (DMPK(h)): -0.97%
- inhibition at 10 µM (CDKL4(h)): -4.09%
- inhibition at 10 µM (NDR1(h)): 3.89%
- inhibition at 10 µM (Adenosine A2A): 3%
- inhibition at 10 µM (NLK (h)): -1.46%
- remaining activity at 1 µM (USP9X): 101%
- remaining activity at 10 µM (USP9X): 99%
- remaining activity at 1 µM (OTUD3): 102%
- remaining activity at 10 µM (OTUD3): 100%
- inhibition at 10 µM (Endothelin ETB): 29%
- inhibition at 10 µM (Estrogen Erα): -15%
- inhibition at 10 µM (Cyclooxygenase COX-2): 5%
- inhibition at 10 µM (PKBgamma(h)): -0.27%
- inhibition at 10 µM (TGFBR2(h)): -0.85%
- inhibition at 10 µM (OSR1(h)): -14.9%
- inhibition at 10 µM (Adrenergic β2): 6%
- remaining activity at 10 µM (USP30): 74%
- remaining activity at 50 µM (USP30): 65%
- inhibition at 10 µM (CK2alpha1(h)): 4.27%
- inhibition at 10 µM (CLK2(h)): -11.5%
- inhibition at 10 µM (IRAK4(h)): -10.4%
- inhibition at 10 µM (NDR2(h)): -2.71%
- inhibition at 10 µM (PKCzeta(h)): -0.09%
- inhibition at 10 µM (WNK2(h)): 2.53%
- inhibition at 10 µM (CDK13/cyclinK(h)): 3.1%
- inhibition at 10 µM (Glucocorticoid): 43%
- inhibition at 10 µM (NEK2(h)): -2.19%
- inhibition at 10 µM (SRPK1(h)): -6.69%
- inhibition at 10 µM (GRK1(h)): -1.62%
- inhibition at 10 µM (CDK3/cyclinE(h)): -14.7%
- inhibition at 10 µM (ACTR2(h)): 6.16%
- inhibition at 10 µM (PAK3(h)): -0.66%
- remaining activity at 1 µM (Cezanne): 104%
- remaining activity at 10 µM (Cezanne): 93%
- inhibition at 10 µM (IRR(h)): 3.88%
- inhibition at 10 µM (TSSK3(h)): 15.5%
- inhibition at 10 µM (Progesterone PR-B): 16%
- remaining activity at 1 µM (OTUD1): 101%
- remaining activity at 10 µM (OTUD1): 104%
- inhibition at 10 µM (SGK2(h)): -5.61%
- inhibition across various DUBs [2]: < 15%
- inhibition at 10 µM (Phosphodiesterase PDE5): 27%
- inhibition at 10 µM (Cdc7/cyclinB1(h)): 3.54%
- % Inh. (Glutamate, NMDA, Agonism): 5
